Values quoted from earlier work in patent publication US20090252703A1, “Use of alcohol co-solvents to improve pegylation reaction yields” (priority 2006, published 2009).

Conditions: cited from earlier work

## CGRP: calcitonin gene-related peptide (CGRP), native peptide
  half-life in mammalian plasma: about 10 min
